As a reminder, the IC50 is the point on the concentration scale where inhibition reaches its midpoint.

By UniProt entry, the sequences of proteins in these tests, tags left out. Residues count along the entry.
UniProt Q16620, 32-822 limits assumed: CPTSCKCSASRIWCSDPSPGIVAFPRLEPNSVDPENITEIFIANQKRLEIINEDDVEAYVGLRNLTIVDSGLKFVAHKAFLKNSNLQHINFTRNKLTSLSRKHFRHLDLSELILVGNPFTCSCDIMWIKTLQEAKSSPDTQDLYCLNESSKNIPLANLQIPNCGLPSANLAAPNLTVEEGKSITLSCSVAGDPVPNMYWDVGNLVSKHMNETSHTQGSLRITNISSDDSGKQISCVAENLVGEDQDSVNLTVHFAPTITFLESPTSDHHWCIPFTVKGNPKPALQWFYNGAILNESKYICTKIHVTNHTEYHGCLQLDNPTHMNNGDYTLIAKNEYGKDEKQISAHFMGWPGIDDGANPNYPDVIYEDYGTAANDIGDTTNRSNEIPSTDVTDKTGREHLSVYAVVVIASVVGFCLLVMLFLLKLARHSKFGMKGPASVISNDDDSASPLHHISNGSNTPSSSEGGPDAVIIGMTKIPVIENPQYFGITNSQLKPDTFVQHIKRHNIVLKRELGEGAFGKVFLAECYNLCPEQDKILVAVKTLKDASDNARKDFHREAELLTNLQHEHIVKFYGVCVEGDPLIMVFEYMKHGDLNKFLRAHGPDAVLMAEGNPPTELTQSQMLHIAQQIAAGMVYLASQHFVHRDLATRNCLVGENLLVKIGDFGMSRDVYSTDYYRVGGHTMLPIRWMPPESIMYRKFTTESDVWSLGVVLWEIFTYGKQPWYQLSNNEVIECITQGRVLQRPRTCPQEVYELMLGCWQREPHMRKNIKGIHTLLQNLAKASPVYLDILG
UniProt P04629, 33-796 limits assumed: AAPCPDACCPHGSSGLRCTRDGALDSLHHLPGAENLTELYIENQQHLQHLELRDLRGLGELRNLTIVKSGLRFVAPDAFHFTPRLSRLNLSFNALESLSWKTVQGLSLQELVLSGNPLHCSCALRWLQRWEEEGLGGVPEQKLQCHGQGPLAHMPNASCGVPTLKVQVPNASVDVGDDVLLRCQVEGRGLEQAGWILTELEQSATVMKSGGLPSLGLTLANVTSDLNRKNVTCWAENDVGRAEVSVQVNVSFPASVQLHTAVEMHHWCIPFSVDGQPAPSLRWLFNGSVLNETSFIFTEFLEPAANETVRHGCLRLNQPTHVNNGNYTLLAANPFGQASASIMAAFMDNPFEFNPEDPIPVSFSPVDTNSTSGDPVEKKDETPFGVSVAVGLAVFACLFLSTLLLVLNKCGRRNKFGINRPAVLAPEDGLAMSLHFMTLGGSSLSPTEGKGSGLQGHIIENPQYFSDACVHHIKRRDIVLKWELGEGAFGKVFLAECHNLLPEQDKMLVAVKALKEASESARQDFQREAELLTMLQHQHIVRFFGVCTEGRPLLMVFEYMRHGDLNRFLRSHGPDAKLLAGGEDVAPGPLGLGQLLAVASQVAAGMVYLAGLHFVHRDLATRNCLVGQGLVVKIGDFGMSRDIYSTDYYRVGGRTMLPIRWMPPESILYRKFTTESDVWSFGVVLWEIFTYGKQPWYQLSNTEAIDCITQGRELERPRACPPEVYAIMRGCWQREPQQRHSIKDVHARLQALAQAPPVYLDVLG

Drawing on patent publication US9067914B1, “Tropomyosin-related kinase (TRK) inhibitors” (Genzyme Corporation, priority 2013, dated 2015), this text covers IC50 for one compound.

Molecules are shown by their SMILES.

The target of one assay is TrkB (Homo sapiens (Human), UniProt Q16620). The assay is described as follows: TrkB activity, off-chip mobility shift assay (LabChip 3000). Conditions: read-out: IC50 TrkB; 70 μM ATP (ATP Km); n/d = none detected. The format is biochemical.
A further assay has as its target TrkA (Homo sapiens (Human), UniProt P04629). Briefly: TrkA activity, off-chip mobility shift assay (LabChip 3000). The format is biochemical. Conditions: read-out: IC50 TrkA; 55 μM ATP (ATP Km); n/d = none detected.

`COc1ccc(COc2ccc(Cn3cnc4cc(-c5nnc(C6CCNCC6)o5)ccc43)cc2OC)cn1`: the IC50 at TrkB came out at 439 nM; on TrkA it was 434 nM.
